Data on one compound can be found in patent US20040024005A1, “Methods and compositions for reducing the development of drug tolerance and/or physical dependence” (The Regents of the University of California, priority 2002, published 2004).

This experiment deals with HA-D MOR (MOR chimera with delta opioid receptor cytoplasmic tail).

Each structure is given as a SMILES string.

Regarding `CN1CC[C@]23c4c5ccc(O)c4O[C@H]2[C@@H](O)C=C[C@H]3[C@H]1C5` [morphine, (5α,6α)-7,8-didehydro-4,5-epoxy-17-methylmorphinan-3,6-diol], the “D MOR endocytosis” value is listed as “efficiently internalized”.
